Biological target: Mu opioid receptor (Homo sapiens, UniProt P35372)
Assay: Affinity at the μ receptor ([35S]GTPγS binding, membranes)
Details: read-out: Mu Receptor Affinity calc Ki; Table 5; mu opioid receptor membrane solution

By UniProt entry, the sequences of proteins in these tests, tags left out. Where a name states a change or a piece, a line headed by the entry shows the natural chain unless it says otherwise.
UniProt P35372, whole entry, looked up: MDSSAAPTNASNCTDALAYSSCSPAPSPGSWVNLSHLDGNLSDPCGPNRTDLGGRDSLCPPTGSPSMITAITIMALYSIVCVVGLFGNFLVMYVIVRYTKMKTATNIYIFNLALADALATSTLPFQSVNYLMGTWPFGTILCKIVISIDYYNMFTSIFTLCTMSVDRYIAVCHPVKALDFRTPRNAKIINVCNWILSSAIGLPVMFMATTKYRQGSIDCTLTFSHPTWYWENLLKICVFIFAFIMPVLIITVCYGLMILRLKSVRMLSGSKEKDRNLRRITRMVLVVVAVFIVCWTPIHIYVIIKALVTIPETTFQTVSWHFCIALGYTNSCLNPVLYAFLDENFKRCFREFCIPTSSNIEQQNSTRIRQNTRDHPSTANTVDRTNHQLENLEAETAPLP
UniProt P41146: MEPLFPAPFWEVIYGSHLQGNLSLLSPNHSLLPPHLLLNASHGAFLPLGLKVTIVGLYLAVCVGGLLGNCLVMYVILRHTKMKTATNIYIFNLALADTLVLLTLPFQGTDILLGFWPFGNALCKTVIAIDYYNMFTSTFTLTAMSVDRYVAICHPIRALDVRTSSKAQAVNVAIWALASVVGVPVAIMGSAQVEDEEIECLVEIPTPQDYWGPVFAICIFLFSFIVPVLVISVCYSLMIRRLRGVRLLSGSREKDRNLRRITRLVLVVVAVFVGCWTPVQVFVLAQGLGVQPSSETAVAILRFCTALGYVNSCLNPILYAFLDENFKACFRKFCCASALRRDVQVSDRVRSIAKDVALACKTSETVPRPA

Molecule | Ki
CCn1c(=O)n(C2CCC(Nc3ccc4ccccc4c3)CC2)c2ccccc21 (stereo not shown) | 2.1 nM
2-cyanoimino-3-ethyl-1-[1-(1,2,3,4-tetrahydronaphthyl)-4-piperidinyl]-1,3-dihydro-2H-benzimidazole | 458 nM

Biological target: human opioid receptor-like receptor (ORL-1) (Homo sapiens, UniProt P41146)
Assay: Nociceptin affinity at the ORL1 receptor ([35S]GTPgS binding, HEK-293 membranes)
Details: read-out: Nociceptin Affinity calc Ki; Table 3; membranes from recombinant HEK-293 cells expressing human ORL-1

Molecule | Ki
NC(=O)c1ccc2c(c1)[nH]c(=O)n2C1CCC(NCc2ccccc2)CC1 (stereo not shown) | > 10000 nM
CCn1c(=O)n(Cc2ccccc2)c2ccccc21 | 296 nM
CCn1c(=O)n(C2CCC3CCCCC3C2)c2ccccc21 (stereo not shown) | 1.6 nM
NC(=O)c1ccc2c(c1)[nH]c(=O)n2C1CCC(NC2CCCCCCC2)CC1 (stereo not shown) | > 10000 nM
NC(=O)c1ccc2c(c1)[nH]c(=O)n2C1CCC(N(Cc2ccccc2)Cc2ccccc2)CC1 (stereo not shown) | > 10000 nM
CCn1c(=O)n(C2CCC(Nc3ccc4ccccc4c3)CC2)c2ccccc21 (stereo not shown) | 961 nM
CCn1c(=O)n(C2CCC(NCc3ccc(OCc4ccccc4)cc3)CC2)c2ccccc21 (stereo not shown) | 2930 nM
CCn1c(=O)n(C2CCC(N(Cc3ccccc3)C3Cc4ccccc4C3)CC2)c2ccccc21 (stereo not shown) | > 10000 nM
NC(=O)c1ccc2c(c1)[nH]c(=O)n2C1CCC(NCc2ccc(-c3ccccc3)cc2)CC1 (stereo not shown) | > 10000 nM
CCn1c(=O)n(Cc2ccc3ccccc3c2)c2ccccc21 | 198 nM
CC(C)CCC(C)NC1CCC(n2c(=O)[nH]c3cc(C(N)=O)ccc32)CC1 (stereo not shown) | > 10000 nM
CCCC1CCC(NC2CCC(n3c(=O)[nH]c4cc(C(N)=O)ccc43)CC2)CC1 (stereo not shown) | > 10000 nM
CC(C)CCC(C)NC1CCC(n2c(=O)[nH]c3cccc(C(N)=O)c32)CC1 (stereo not shown) | > 10000 nM
CCNC1CCC(n2c(=O)[nH]c3ccccc32)CC1 (stereo not shown) | 9180 nM
CCN(Cc1ccc2ccccc2c1)C1CCC(n2c(=O)[nH]c3ccccc32)CC1 (stereo not shown) | 3600 nM
CCn1c(=O)n(CCCCC(C)(c2ccc(F)cc2)c2cccc(F)c2)c2ccccc21 (stereo not shown) | 148 nM
CCCC1CCC(n2c(=O)n(CC)c3ccccc32)CC1 (stereo not shown) | 68 nM
CC(C)C1CCC(NC2CCC(n3c(=O)[nH]c4ccccc43)CC2)CC1 (stereo not shown) | > 10000 nM
3-ethyl-1-(naphthylmethyl)-1,3-dihydro-2H-benzimidazol-2-one | 39 nM
1-[4-[(1,2,3,4-tetrahydronaphthyl)amino]-cyclohexyl]-5-carbamoyl-1,3-dihydro-2H-benzimidazol-2-one | > 10000 nM
CCn1c(=O)n(C2CCC(NC3CCC4CCCCC4C3)CC2)c2ccccc21 (stereo not shown) | 288 nM
CCn1c(=O)n(Cc2ccc(-c3ccccc3)cc2)c2ccccc21 | 509 nM
O=c1[nH]c2ccccc2n1C1CCC(NC2CCC3CCCCC3C2)CC1 (stereo not shown) | > 10000 nM
O=c1[nH]c2ccccc2n1C1CCC(NC2CC3CCC2C3)CC1 (stereo not shown) | > 10000 nM
NC(=O)c1ccc2c(c1)[nH]c(=O)n2C1CCC(NC2CCC(c3ccccc3)CC2)CC1 (stereo not shown) | > 10000 nM
NC(=O)c1ccc2c(c1)[nH]c(=O)n2C1CCC(NC2CCC3CCCCC3C2)CC1 (stereo not shown) | > 10000 nM
CCn1c(=O)n(Cc2ccc(OCc3ccccc3)cc2)c2ccccc21 | 438 nM
CCn1c(=O)n(C(C)CCC(C)C)c2ccccc21 (stereo not shown) | 23 nM
NC(=O)c1ccc2c(c1)[nH]c(=O)n2C1CCC(NC2Cc3ccccc3C2)CC1 (stereo not shown) | > 10000 nM

Same assay, conditions: read-out: Nociceptin Affinity calc Ki; Table 4 (headed TABLE 45); membranes from recombinant HEK-293 cells expressing human ORL-1

Molecule | Ki
2-cyanoimino-3-ethyl-1-[1-(1,2,3,4-tetrahydronaphthyl)-4-piperidinyl]-1,3-dihydro-2H-benzimidazole | 157 nM
2-cyanoimino-1-[1-(cyclooctyl)-2,6-ethano-4-one-4-piperidinyl]-1,3-dihydro-2H-benzimidazole | 19 nM
2-cyanoimino-3-acetomido-1-[1-(cyclooctyl)-4-piperidinyl]-1,3-dihydro-2H-benzimidazole | 11 nM

Reference: patent US7495109B2, “Nociceptin analogs” (dated 2009)
